Shown are actives, neighbours in structure and some others; about 2.2% of the full set was active somewhere.
PDI turbidity = inhibitors of human PDI, primary screen, biochemical, turbidity, single point, plate reader; PDI insulin aggregation turbidity, A650, 90 min; inhibition, % at 10 µM; 0.052% of 350,000 active; AID 588391, 2011;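 active means mean inhibition across replicates of 30% or more, whatever share of single replicates reach that level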
S100A4 MyoIIA = inhibitors of S100A4-myosin IIA peptide binding, primary screen, biochemical, fluorescence polarization, TAMRA-MyoIIA peptide; Protein S100-A4 (Homo sapiens), P26447; inhibition, % at 10.7 µM; 0.14% of 360,000 active;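 active means mean inhibition of at least 70% across replicates, with every replicate also reaching that level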
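assay system = human S100A4 monomer with TAMRA-labelled myosin IIA peptide | also added = labelled myosin peptide probe, 5 nM | incubation = 5 min between mix addition and reading | control set = DMSO and TFP controls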
SIRT5 inh = SIRT5 desuccinylase inhibitors, primary screen, biochemical, fluorescence imaging, single point, set 5; NAD-dependent protein deacylase sirtuin-5, mitochondrial (Homo sapiens), Q9NXA8; Purified SirT5, succinyl-peptide AMC, trypsin-coupled fluorescence; inhibition, % at 15 µM; 1.1% of 330,000 active; AID 652115, 2013; in the data active means inhibition above about 15%
UUG fidelity = alters start codon recognition fidelity in yeast; S. cerevisiae UUG-firefly luciferase reporter, luminescence/redox ratio; activity score, % at 18.7 µM; hit rate 0.13% among 350,000;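 active = replicate mean at a twofold rise or more, about +100% in these data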;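 also: firefly luciferase made from a UUG start codon reports start codon fidelity; reporter light over untreated wells divided by growth signal over untreated wells; some hits fall short of that in this replicate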
FGF22 binding = binders of human FGF22 protein, primary screen, FGF22 synaptogenesis inhibitor project, biophysical, thermal shift, single point. activity (Tm shift, normalised), % at 9.99 µM. Fibroblast growth factor 22 (Homo sapiens), Q9HCT0. recombinant FGF22 thermal shift, SYPRO orange fluorescence; percent of sucrose octasulfate shift, DMSO zero. 1.5% of 340,000 active;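 active means mean Tm shift, scaled 0 neutral to 100 positive control, at about 1.3% or above, every replicate too, limit read from the data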
ERp5 inh = inhibitors of ERp5-driven insulin aggregation, primary screen, biochemical, turbidity, absorbance 650 nm, single point; 90 min; inhibition, % at 9.99 µM; 0.05% of 350,000 active; AID 651711, 2012;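 active means mean replicate inhibition above about 25%, with every replicate also reaching it, limit read from the data, passing the limit was not always enough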
The depositor's hits bear a star; ! = not active in a repeat.

What do the screens show for `O=C(C[C@@H]1C=C[C@@H](NC(=O)c2ccncc2)[C@@H](CO)O1)NCc1ccncn1`?
S100A4 MyoIIA: -2; SIRT5 inh: 1; ERp5 inh: 0

Results for Cc1nc(SCCOc2ccccc2)[nH]c(=O)c1Cc1ccccc1 ?
PDI turbidity: 0; S100A4 MyoIIA: 3; SIRT5 inh: -7; FGF22 binding: 43*; ERp5 inh: 3

Results for COc1ccc(OCCSc2nc(C)c(Cc3ccccc3)c(=O)[nH]2)cc1 ?
PDI turbidity: 1; S100A4 MyoIIA: 6; SIRT5 inh: -6; FGF22 binding: 0; ERp5 inh: -4

What do the screens show for `COc1ccc(-c2ccc3c(c2)[C@@H]2[C@@H](CCN2C(=O)c2cnccn2)[C@H](CO)N3)cc1`?
S100A4 MyoIIA: -3; SIRT5 inh: 4; UUG fidelity: -14; FGF22 binding: 1; ERp5 inh: 2

What do the screens show for `C[C@@H]1CN([C@@H](C)CO)C(=O)c2cc(NS(=O)(=O)c3ccc(Cl)cc3)ccc2O[C@@H](C)CCCCO[C@H]1CN(C)Cc1ccc2c(c1)OCO2`?
S100A4 MyoIIA: 7; SIRT5 inh: 5; UUG fidelity: 5; ERp5 inh: -1

What do the screens show for `COc1ccc(S(=O)(=O)Nc2ccc3c(c2)C(=O)N([C@@H](C)CO)C[C@@H](C)[C@H](CN(C)Cc2ccc4c(c2)OCO4)OCCCC[C@H](C)O3)cc1`?
S100A4 MyoIIA: 2; SIRT5 inh: 2; UUG fidelity: 16; FGF22 binding: 1.3*; ERp5 inh: -3

What do the screens show for `C[C@@H]1CN([C@H](C)CO)C(=O)c2cc(NS(=O)(=O)c3ccc(Cl)cc3)ccc2O[C@@H](C)CCCCO[C@@H]1CN(C)Cc1ccc2c(c1)OCO2`?
S100A4 MyoIIA: -5; SIRT5 inh: 19*!; UUG fidelity: 8; ERp5 inh: 2

How did Cc1cc2oc(C(=O)Nc3ccc(S(=O)(=O)Nc4nccs4)cc3)cc(=O)c2cc1Cl do in these assays?
PDI turbidity: 7

How did Cc1cc(C)c2oc(C(=O)Nc3ccc(S(=O)(=O)Nc4nccs4)cc3)cc(=O)c2c1 do in these assays?
PDI turbidity: -2; S100A4 MyoIIA: -8; SIRT5 inh: -1; FGF22 binding: 43*; ERp5 inh: 2

Results for O=C(Nc1ccc(S(=O)(=O)Nc2nccs2)cc1)C1CC(=O)N(c2ccc(Cl)cc2)C1 (stereo unspecified) ?
PDI turbidity: 2; S100A4 MyoIIA: 1; SIRT5 inh: 9; UUG fidelity: -5; FGF22 binding: 0; ERp5 inh: 0

Overlap with the part before: two entries; new compounds follow.
How did Cc1cc(C)c2oc(C(=O)Nc3ccc(S(=O)(=O)Nc4nccs4)cc3)cc(=O)c2c1 do in these assays?
PDI turbidity: -2; S100A4 MyoIIA: -8; SIRT5 inh: -1; FGF22 binding: 43*; ERp5 inh: 2

Results for O=C(Nc1ccc(S(=O)(=O)Nc2nccs2)cc1)C1CC(=O)N(c2ccc(Cl)cc2)C1 (stereo unspecified) ?
PDI turbidity: 2; S100A4 MyoIIA: 1; SIRT5 inh: 9; UUG fidelity: -5; FGF22 binding: 0; ERp5 inh: 0

How did Cc1ccc(N2CC(C(=O)Nc3ccc(S(=O)(=O)Nc4nccs4)cc3)CC2=O)cc1C (stereo unspecified) do in these assays?
PDI turbidity: -11; S100A4 MyoIIA: 2; SIRT5 inh: 18*; UUG fidelity: -8; FGF22 binding: 0; ERp5 inh: 0

What do the screens show for `OC[C@H]1[C@@H](c2ccc(C#CC3CC3)cc2)[C@@H]2CN(CCC(F)(F)F)CCCCN12`?
UUG fidelity: 7

Results for Cc1cccc(-c2ccc([C@@H]3[C@H]4CN(C(=O)CN5CCOCC5)CC(=O)N4[C@H]3CO)cc2)c1 ?
S100A4 MyoIIA: -1; SIRT5 inh: 1; ERp5 inh: 1

Results for CC(C)CN(C[C@H]1N[C@H](CO)[C@@H]1c1ccccc1)C(=O)C1CCCCC1 ?
S100A4 MyoIIA: -26; SIRT5 inh: 22*; ERp5 inh: 2

Results for CC(=O)c1ccc(N2CC(C)(C)C2=O)cc1 ?
PDI turbidity: 7; S100A4 MyoIIA: 5; SIRT5 inh: -5; UUG fidelity: -7; FGF22 binding: 43*; ERp5 inh: 3

How did CN(C)c1ccc(N2CC(C)(C)C2=O)cc1 do in these assays?
PDI turbidity: -1; S100A4 MyoIIA: -4; SIRT5 inh: -10; FGF22 binding: 42; ERp5 inh: 4

Screening results as filed in PubChem.
